Measured values as given in ChEMBL document CHEMBL1146899, “Redefining the structure-activity relationships of 2,6-methano-3-benzazocines. 4. Opioid receptor binding properties of 8-[N-(4'-phenyl)-phenethyl)carboxamido] analogues of cyclazocine and ethylketocycalzocine” (J Med Chem, 2006).

The chains behind the UniProt entries cited, without tags or fusion partners. Where a name states a change or a piece, a line headed by the entry shows the natural chain unless it says otherwise.
UniProt P41145: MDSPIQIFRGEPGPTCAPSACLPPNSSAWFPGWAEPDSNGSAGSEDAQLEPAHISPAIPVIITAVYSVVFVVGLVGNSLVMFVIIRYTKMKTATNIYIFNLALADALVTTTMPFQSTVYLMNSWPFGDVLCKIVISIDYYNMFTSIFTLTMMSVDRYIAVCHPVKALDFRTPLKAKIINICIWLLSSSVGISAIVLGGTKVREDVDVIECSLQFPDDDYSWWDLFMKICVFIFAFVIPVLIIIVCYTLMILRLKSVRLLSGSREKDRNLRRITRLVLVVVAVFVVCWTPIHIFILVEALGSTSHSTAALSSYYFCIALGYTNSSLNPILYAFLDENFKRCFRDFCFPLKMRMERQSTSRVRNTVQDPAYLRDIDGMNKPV
UniProt P35372, whole entry, looked up: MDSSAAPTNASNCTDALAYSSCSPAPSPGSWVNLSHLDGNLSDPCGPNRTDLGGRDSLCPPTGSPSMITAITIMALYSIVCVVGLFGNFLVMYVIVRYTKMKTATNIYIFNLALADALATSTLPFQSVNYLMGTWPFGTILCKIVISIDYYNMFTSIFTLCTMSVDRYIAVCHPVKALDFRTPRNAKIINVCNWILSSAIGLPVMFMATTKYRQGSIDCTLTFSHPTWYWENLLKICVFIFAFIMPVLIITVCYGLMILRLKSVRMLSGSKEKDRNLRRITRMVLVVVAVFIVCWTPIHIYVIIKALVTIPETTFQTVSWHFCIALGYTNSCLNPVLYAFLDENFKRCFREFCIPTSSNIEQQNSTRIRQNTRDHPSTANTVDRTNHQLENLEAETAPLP

How the values were obtained:
[1] = biological target: T1, Kappa-type opioid receptor (Homo sapiens, UniProt P41145); assay: Agonist activity at human kappa opioid receptor expressed in CHO cells assessed as stimulation of [35S]GTP-gamma-S binding
[2] = biological target: T1, Kappa-type opioid receptor; assay: Antagonist activity against human kappa opioid receptor expressed in CHO cells assessed as inhibition of U50488-stimulated [35S]GTP-gamma-S binding
Mu-type opioid receptor = Mu-type opioid receptor (Homo sapiens, UniProt P35372); assay: Agonist activity at human mu opioid receptor expressed in CHO cells assessed as stimulation of [35S]GTP-gamma-S binding

CN(C(=O)Cc1ccc(Cl)c(Cl)c1)C1CCCCC1N1CCCC1 (stereo not given)
Activity [1]: inactive
Emax [1]: 77%

C[C@H]1C2Cc3ccc(C(N)=O)cc3[C@@]1(C)CCN2CC1CC1
Activity [2]: inactive
Emax [2]: 87%

C[C@@H](NC(=O)[C@@H](N)Cc1ccc(O)cc1)C(=O)NCC(=O)N(C)[C@@H](Cc1ccccc1)C(=O)NCCO
Activity (Mu-type opioid receptor): inactive

Active and inactive are the calls of the source. The rule behind the calls is not given here.
